In patent publication US20080269348A1, “Novel Arylbicyclo[3.1.0]Hexylamines And Methods And Compositions For Their Preparation And Use” (priority 2006, published 2008) one finds IC50 data, which are given here for one molecule.

The chains behind the UniProt entries cited, without tags or fusion partners. Residues count along the entry.
UniProt Q63380, 1-617: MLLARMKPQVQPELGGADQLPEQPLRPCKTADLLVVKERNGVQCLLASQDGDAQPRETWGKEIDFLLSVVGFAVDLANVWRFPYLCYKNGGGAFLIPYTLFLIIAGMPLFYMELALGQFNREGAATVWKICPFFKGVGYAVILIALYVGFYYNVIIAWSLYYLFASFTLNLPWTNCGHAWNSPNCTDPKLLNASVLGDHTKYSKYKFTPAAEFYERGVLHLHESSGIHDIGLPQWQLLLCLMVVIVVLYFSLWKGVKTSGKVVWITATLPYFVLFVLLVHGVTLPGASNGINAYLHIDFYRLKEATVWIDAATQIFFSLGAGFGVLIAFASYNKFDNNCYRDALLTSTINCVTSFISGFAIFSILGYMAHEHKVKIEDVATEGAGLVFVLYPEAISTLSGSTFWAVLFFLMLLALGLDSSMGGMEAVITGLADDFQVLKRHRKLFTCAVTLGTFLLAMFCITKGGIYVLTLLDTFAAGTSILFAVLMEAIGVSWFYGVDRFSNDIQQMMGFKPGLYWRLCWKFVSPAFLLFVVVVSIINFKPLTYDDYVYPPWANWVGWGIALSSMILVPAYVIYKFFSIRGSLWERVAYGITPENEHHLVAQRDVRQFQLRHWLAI
UniProt P31652, whole entry, looked up: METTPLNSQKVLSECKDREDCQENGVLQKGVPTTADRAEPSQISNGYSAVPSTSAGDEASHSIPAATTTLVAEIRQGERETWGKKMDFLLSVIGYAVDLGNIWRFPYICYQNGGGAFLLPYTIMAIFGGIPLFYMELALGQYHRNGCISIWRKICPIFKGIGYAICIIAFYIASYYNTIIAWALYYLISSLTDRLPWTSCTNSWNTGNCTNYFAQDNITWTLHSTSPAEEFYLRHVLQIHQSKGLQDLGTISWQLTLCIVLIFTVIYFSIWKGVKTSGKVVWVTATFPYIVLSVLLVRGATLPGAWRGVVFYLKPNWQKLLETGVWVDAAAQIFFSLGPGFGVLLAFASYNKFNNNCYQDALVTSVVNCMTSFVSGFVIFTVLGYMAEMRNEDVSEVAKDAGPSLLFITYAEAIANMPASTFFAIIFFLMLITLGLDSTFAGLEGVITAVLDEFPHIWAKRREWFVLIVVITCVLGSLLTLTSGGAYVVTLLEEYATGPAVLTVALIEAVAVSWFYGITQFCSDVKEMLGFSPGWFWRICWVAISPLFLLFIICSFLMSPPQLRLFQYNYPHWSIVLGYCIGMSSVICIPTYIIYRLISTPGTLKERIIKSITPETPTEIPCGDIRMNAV

In assay [1] the target is norepinephrine (NE) uptake (Rattus norvegicus, UniProt Q63380). Kind of assay: Inhibition of [3H]NE uptake in rat hypothalamus synaptosomes. The assay is classed as biochemical. To be noted: read-out: Uptake IC50 (nM) NE.
The next assay addresses serotonin (5-HT) uptake (Rattus norvegicus, UniProt P31652). To be noted: read-out: Uptake IC50 (nM) 5-HT; whole brain synaptosomes.

Structures are written as SMILES.

What is called IC50 is the midpoint of a concentration-inhibition curve. Turning to `NC1C[C@H]2C[C@]2(c2ccc(Cl)c(Cl)c2)C1` (some centres unmarked), the IC50 in assay [1] stood at 454 nM; on serotonin (5-HT) uptake, 172 nM.
